In patent publication EP0832229B1 (IMMUNEX CORPORATION, dated 2004) one finds Ka data, which are given here for one molecule.

Test [1] addresses T1, dimeric murine CD40L (prepared substantially as described for the human CD40L) (murine, UniProt P27548 50-260, limits assumed).
T1 construct: also called Murine Dimer; not shown: Fc region, by analogy with human CD40L/Fc; not described further
T1 sequence (looked up): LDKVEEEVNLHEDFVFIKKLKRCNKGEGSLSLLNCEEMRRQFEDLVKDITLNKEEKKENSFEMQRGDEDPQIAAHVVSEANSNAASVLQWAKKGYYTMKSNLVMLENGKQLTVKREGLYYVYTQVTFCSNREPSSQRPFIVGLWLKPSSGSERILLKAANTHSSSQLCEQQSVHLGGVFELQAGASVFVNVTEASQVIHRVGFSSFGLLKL
Put plainly: BIAcore SPR, CD40/Fc captured by goat anti-human IgG1 Fc; K2 (site 2); experiment 1.

For test [2], the target named is T1, dimeric murine CD40L (prepared …). Put plainly: BIAcore SPR, CD40/Fc captured by goat anti-human IgG1 Fc; K1 (site 1); experiment 1.

B1: CD40/Fc fusion protein (extracellular domain of human CD40 fused to the Fc domain of human IgG1) (Fc fusion, UniProt P25942 21-193, looked up)
chain: EPPTACREKQYLINSQCCSLCQPGQKLVSDCTEFTETECLPCGESEFLDTWNRETHCHQHKYCDPNLGLRVQQKGTSETDTICTCEEGWHCTSEACESCVLHRSCSPGFGVKQIATGVSDTICEPCPVGFFSNVSSAFEKCHPWTSCETKDLVVQQAGTNKTDVVCGPQDRLR
notes: extracellular domain; Prepared as in WO 93/08207; also called C40/Fc; CD40/Fc dimer; not shown: Fc domain of human IgG1
As to B1, the Ka in test [1] is 4e+07 M⁻¹; in test [2] it was 7e+09 M⁻¹.
